3 substances from patent US12544451B2, “Intracellular delivery compositions” (BIOND BIOLOGICS LTD., priority 2021, dated 2026) can be followed below.

Where two headings read alike, the source gives them in different places.

The nature of series [1]: PK and biodistribution of PEI-modified HSA carriers in mice with B-16 melanoma tumors (anti-HSA ELISA). It is filed as in vivo. To be noted: IV 250 nmol/Kg. The method, then: The carriers were IV injected at a dose of 250 nmol/Kg. PK and biodistribution of the tested carriers were evaluated using anti-HSA ELISA.
In contrast, when the VHH was directly conjugated with PEI1800 at its C-terminus the clearance from blood was very rapid (FIG. 25B, Table 2). The plasma exposure levels of both carriers can be seen in FIG. 25C.
On the technique in general: An ELISA detects its analyte on a solid surface through an enzyme-linked reagent.

The nature of series [2]: PK and biodistribution of anti-Vimentin VHH conjugates in mice (ELISA, immunofluorescence). The note with it: 24 hours post injection; for HSA levels in organs (brain, heart, spleen, lung, tail, liver): mice injected with VHH-carrier conjugate, HSA ELISA. It is filed as in vivo. As to the method: Additionally, various tissues were harvested from the mice at 24 hours post injection to evaluate biodistribution. Tissues included liver, spleen, kidneys, lungs, heart and brain.
Initial analysis focused on the detection and measurement of the payload, i.e., the VHH. Samples were analyzed by an ELISA used for detection of VHH as well as by an ELISA designed to measure the intact carrier-VHH conjugate. […] Analysis of VHH levels in plasma samples taken at 24 hours post injection could not detect any VHH regardless of whether it was unmodified or part of the conjugate. […] This hypothesis was further supported by results of ELISA (FIG. 28) and immunofluorescence analysis (FIG. 29) of VHH in the various tissues.
Understanding that the payload VHH was prematurely cleaved in the plasma, the levels of the carrier itself were analyzed in the various collected organs. An ELISA directed only at the HSA protein was used to analyze extracts of brain, heart, spleen, lung, tail and liver from the injected animals. […] These ELISA results were corroborated by immunofluorescence results showing high levels of the HSA-PEI×8 protein in spleen cryosections stained with an anti-HSA-FITC antibody (FIG. 32C).

In another series the test system is SU8686 cells. Put plainly: Annexin V apoptosis of SU8686 pancreatic ductal carcinoma cells (Incucyte). It is filed as cell-based. From the text: The carrier was modified with either 8 or 3.5 PEI molecules. The apoptotic state of the cells was monitored using the classical Annexin V assay and was visualized using the Incucyte® continuous cell monitoring system. […] This is likely due to enhanced internalization and quicker kinetics, especially of the endosomal escape process.

The conditions of series [3]: mouse, in vivo, 60 nmol/kg.
Series [4] is described as follows: In vivo PK study of 3rd generation linkers (hindered PEGs and peptide linkers), two side ELISA. To be noted: Balb-c mice, 60 nmol/Kg, plasma.

As to “HSA-PEI × 3.5: HSA carrier modified with an average of 3.5 PEI units”, in series [1], the AUC-0-t is 578 µg·h/mL and the Clearance was 0.432 mL/min/kg. In series [2], the “HSA levels in organs (brain, heart, spleen, lung, tail, liver)” value (“HSA levels in organs” below) is “detected at very low levels in all organs”.
Turning to “HSA-PEI × 8: HSA carrier modified with an average of 8 PEI units”, in series [1], the AUC-0-t came out at 22 µg·h/mL and the Clearance turned out to be 12.2 mL/min/kg. In addition, the “apoptosis (Annexin V)” value in the series with SU8686 cells is on record as “baseline levels of apoptosis”. Moreover, in series [2], the “HSA levels in organs” value was “detected at very high levels in all organs, except lungs and tail”.
The Cmax is the highest concentration seen after dosing. As to Human Serum Albumin [HSA], in series [2], the “HSA levels in organs” value is “detected at very low levels in all organs”. Further, in series [2] (mice, HSA-specific ELISA), the “carrier (HSA) levels in plasma” value is “significant levels”. For the same substance, in series [3], the AUC0-inf was found to be 2300.5 µg·h/mL, the AUC0-t was determined as 2084.3 µg·h/mL, the C0 was 118.7 µg/mL and the Cmax came out at 113.0 µg/mL. In series [4], this substance yielded an AUC0-t of 1226.9 µg·h/mL, a C0 of 75.6 µg/mL, a CL of 0.064 mL/min/kg and a Cmax of 74.1 µg/mL.
